Rows were chosen to be rich in hits. Some 0.43% of all compounds tested hit in one or more screens of this group.
Rango complex inh – prevents formation of the Rango-importin beta complex. 340,000 compounds, 0.031% hits. Potency, µM (highest dose often 92.2 µM), for inactives: at the top dose inhibition of complex formation. Q14974. Rango CFP/YFP FRET sensor + importin beta, 45 min. AID 540263; calls by dose curve;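 further: potency means the concentration at half of the fitted maximal effect; 0% = DMSO wells and 100% = buffer wells lacking importin beta; nearly all actives have a fitted effect of over 15% in size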
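Inhibition scored from the CFP 486 nm/YFP 530 nm FRET ratio 45 min after adding 0.125 microM importin beta to 50 nM Rango biosensor preincubated 5 min with compound (room temperature, PBS with DTT, Tween-20, BSA). No-importin wells as positive control.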
CCT modulator – modulators of cytosolic chaperonin (CCT/TRiC) activity; activity change, % (concentration not given with the values), hits read low; purified chaperonin ATPase assay, HTRF ADP detection, 30 min; 360,000 compounds, 0.3% hits; in the data active means activity change below about -30%; further: on the % scale 0 is the no-effect control and ±100 the full control effect
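Enzyme 40 or 20 nM (batch-dependent) in Tris pH 7.4/KCl/MgCl2/DTT; cpd 76 uM single point; ATP 10 uM; 30 min 37 °C; Transcreener ADP HTRF detection, 30 min RT; ratio 665/615.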
Rango release inh – inhibition of RanGTP-driven Rango-importin beta dissociation. Potency, µM (titrated, usually from 46.1 µM), for the others: at the highest dose activity change, negative = inhibition. Biochemical FRET Rango-importin beta, RanGTP-induced dissociation. O95149+P62826. 340,000 compounds, 0.071% hits; calls by dose curve; further: potency means the concentration at half of the fitted maximal effect; % of control where 0% means no effect; nearly all actives have a fitted effect of over 45% in size
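Compounds preincubate 5 min with complex of recombinant Rango and importin beta in PBS with 1 mM DTT. Ran (0.6 uM) loaded with 2 mM GTP plus 0.2 uM RCC1 starts dissociation; FRET is recorded 45 min later.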
B2AR arrestin – beta2AR (human) beta-arrestin recruitment activity. 330,000 compounds, 0.02% hits. AID 492947. beta-arrestin recruitment to beta2AR, cell-based reporter. Potency, µM (doses to about 46.1 µM), without a hit: at the highest dose activation, most hits filed as activators;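 further: potency means the concentration at half of the fitted maximal effect; 0% = DMSO controls and full agonism = EC100 isoproterenol or metaproterenol; nearly all actives have a fitted effect of over 65% in size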
Mm-Cpn inhibitor – blocks the Methanococcus maripaludis chaperonin Mm-Cpn | purified Mm-Cpn ATPase, ADP Transcreener TR-FRET | Potency, µM (top dose mostly 76.9 µM), inactives show top-dose activity, negative = inhibition, most hits filed as inhibitors | 330,000 compounds, 0.031% hits; further: potency means the concentration at half of the fitted maximal effect; on the % scale 0 is the no-effect control and ±100 the full control effect; nearly all actives have a fitted effect of over 80% in size
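TR-FRET (320 nm excitation; 590 and 665 nm emission) reports ADP made from 10 uM ATP by 25 nM enzyme; compounds were preincubated 10 min, reaction run 30 min, both at 37°C.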
Starred values were filed as active, the others as inactive; u = inconclusive; x = not tested or not shown. Unless noted, the call rests on the fitted dose curve; in most records, active means well fitted curve in the direction sought with a large enough effect; inconclusive means small, poorly fitted or top-dose-only effect, or another doubt; inactive means no such curve, though single readings can be large; an effect the other way counts as inactive or inconclusive.

#	Rango complex inh	CCT modulator	Rango release inh	B2AR arrestin	Mm-Cpn inhibitor	molecule
1	0.2%	2.0	-0.1%	7.94µM*	-2.5%	CCNc1nc(NCC)nc(-n2nc(C)cc2C)n1
2	0.5%	-54.3*	9.2%	-0.2%	-22.7%	O=C(Cn1cnc2ccccc2c1=O)N1CCN(Cc2ccc3c(c2)OCO3)CC1
3	0.2%	2.0	0.9%	-0.7%	1.0%	CC(=O)C1CCCN(C(=O)c2ccc3nc(Cc4cccc(Cl)c4)oc3c2)C1 (centres undefined)
4	-4.9%	-75.2*	-24.8%	-0.2%	-0.8%	O=C(Cn1cnc2ccccc2c1=O)Nc1ccccc1N1CCOCC1
5	3.7%	1.5	0.4%	-0.3%	u	S=c1[nH]nc(-c2cccnc2)o1
6	-0.1%	-0.8	-27.0%	-0.4%	31.6µM*	S=c1[nH]nc(-c2cccc(Br)c2)o1
7	u	0.2	13µM*	0.2%	-10.2%	COC(=O)c1ccc2nc(Nc3nc4ccc(F)cc4s3)sc2c1
8	-4.6%	-48.2*	28.3%	0.1%	0.0%	CCn1c(C)nc2cc(S(=O)(=O)C(F)(F)C(F)C(F)(F)F)ccc21 (centres undefined)
9	-0.1%	-0.7	16.4µM*	0.3%	-3.8%	COc1ccc(NC(=O)CCCc2ccccc2)c(OC)c1
10	58µM*	-1.8	2.0%	-0.3%	-1.0%	COc1cccc(NC2=Nc3cccc4cccc2c34)c1
11	-1.3%	-0.6	-11.1%	0.2%	-6.9%	COc1ccc(NC2=Nc3cccc4cccc2c34)cc1OC
12	-2.7%	-49.4*	-10.8%	0.5%	-2.2%	CCc1ccc2nc(N3CCN(C)CC3)c(C#N)cc2c1
13	7.6%	-4.8	-9.1%	0.3%	-4.6%	C/C(=N\Nc1ccc(S(=O)(=O)N2CCCCC2)cn1)c1ccc(O)cc1
14	3.4%	0.8	-4.0%	0.1%	-1.2%	CCOc1ncccc1C(=O)Nc1nnc(C)s1
15	-4.5%	-30.5*	2.1%	-0.2%	-6.7%	CCOc1ncccc1C(=O)Nc1nnc(C2CC2)s1
16	u	x	11.6µM*	0.1%	-0.6%	CC(=O)N1CCN(c2ccc(NCc3ccc(-c4cccc(Cl)c4)o3)cc2)CC1
17	x	0.3	x	x	x	CCc1nc2ccc(C(=O)Nc3cccc(OCC(=O)N(C)C)c3)cn2c1N(C)Cc1ccc(OC)cc1
18	0.7%	-2.1	-4.3%	0.4%	-1.9%	CCOc1cccc(CN(C)CC2CCCN(CCc3ccc(Cl)cc3)C2)c1O (centres undefined)
19	-0.6%	-1.8	u	0.1%	1.4%	CC(C)NC(=O)C1=NN(c2ccccc2)C(=O)CC1
20	51.7µM*	0.0	0.1%	-0.1%	-2.8%	COc1ccc(NC(=O)C2=NN(c3ccccc3)C(=O)CC2)cn1
21	-0.8%	-79.8*	13.4%	0.0%	0.0%	O=C(CCS(=O)(=O)c1ccc(Br)cc1)NCc1ccc(F)cc1
22	5.9%	1.2	2.2%	0.3%	-5.3%	CC1(C)C(C=C(Cl)Cl)C1C(=O)N1CCN(c2ccccc2)CC1 (centres undefined)
23	x	-1.5	x	x	x	COc1ccccc1S(=O)(=O)N(C)C[C@@H]1OCc2cnnn2CCCC(=O)N([C@H](C)CO)C[C@@H]1C
24	1.9%	-0.4	1.3%	0.1%	1.7%	CCOc1ccc(NC(=O)CN(C)C(=O)CCC2CCCCC2)cc1OCC
25	10.3%	-35.9*	-1.1%	-0.1%	0.6%	COc1ccc(NC(=O)CN(C)C(=O)CCC2CCCC2)cc1

Entries of single compounds, looked up by structure:
`COc1ccc(NC(=O)CN(C)C(=O)CCC2CCCC2)cc1` as listed: Rango complex inh: 10.3%; CCT modulator: -35.9*; Rango release inh: -1.1%; B2AR arrestin: -0.1%; Mm-Cpn inhibitor: 0.6%
`COc1cccc(NC2=Nc3cccc4cccc2c34)c1` as listed: Rango complex inh: 58µM*; CCT modulator: -1.8; Rango release inh: 2.0%; B2AR arrestin: -0.3%; Mm-Cpn inhibitor: -1.0%
`COc1ccc(NC2=Nc3cccc4cccc2c34)cc1OC` as listed: Rango complex inh: -1.3%; CCT modulator: -0.6; Rango release inh: -11.1%; B2AR arrestin: 0.2%; Mm-Cpn inhibitor: -6.9%

An excerpt of these results, as labelled records.
20	COc1ccc(NC(=O)C2=NN(c3ccccc3)C(=O)CC2)cn1
  Rango complex inh = 51.7µM*
  CCT modulator = 0.0
  Rango release inh = 0.1%
  B2AR arrestin = -0.1%
  Mm-Cpn inhibitor = -2.8%

16	CC(=O)N1CCN(c2ccc(NCc3ccc(-c4cccc(Cl)c4)o3)cc2)CC1
  Rango complex inh = u
  CCT modulator = x
  Rango release inh = 11.6µM*
  B2AR arrestin = 0.1%
  Mm-Cpn inhibitor = -0.6%

New compounds follow
#	Rango complex inh	CCT modulator	Rango release inh	B2AR arrestin	Mm-Cpn inhibitor	molecule
26	0.4%	-3.2	4.6%	0.5%	-14.1%	COc1ccc(/C=C2\Oc3ccccc3C2=O)cc1
27	u	0.8	10.3µM*	-0.3%	1.1%	COc1ccc2c(c1)O/C(=C\c1sccc1C)C2=O
28	-3.7%	2.5	2.3%	-0.1%	-2.4%	CCN(CC(=O)Nc1ccc(Cl)c(S(=O)(=O)N(C)C)c1)CC(=O)NC(C)C
29	2.2%	-37.9*	0.3%	-0.3%	0.1%	O=C(CC(c1ccco1)C1CCCCC1=O)c1ccco1 (centres undefined)
30	0.2%	-0.5	0.4%	0.5%	-1.3%	O=C(CC(c1ccccc1)C1CCCCC1=O)c1ccco1 (centres undefined)
31	2.2%	-2.7	25.3%	-0.2%	-4.7%	CN(C(=O)CSc1nncn1-c1ccccc1)c1ccccc1
32	-1.8%	-69.5*	7.1%	-0.1%	-1.0%	CN(C(=O)CSc1nc(N)nn1-c1ccccc1)c1ccccc1
33	0.4%	-1.0	-17.5%	-0.2%	1.7%	CCOc1ccccc1CNC(=O)c1nn(CC)cc1[N+](=O)[O-]
34	u	-32.7*	2.7%	0.1%	-3.9%	Cc1oc2c(c(C)cc3oc(=O)c(CC(=O)N[C@@H](C)C(=O)O)c(C)c32)c1C
35	-0.8%	-3.1	2.1%	0.1%	-3.4%	CC[C@@H](C)[C@H](NC(=O)Cc1c(C)c2c(cc(C)c3c(C)c(C)oc32)oc1=O)C(=O)O
36	2.6%	-3.3	14.4%	0.0%	-4.2%	CC1=NN(C(N)=S)C(=O)C1N=Nc1ccc(O)cc1 (centres undefined)
37	0.2%	0.2	27.5%	1.26µM*	0.5%	CC1=NN(C(N)=S)C(=O)C1N=Nc1cccc(C)c1 (centres undefined)
38	3.7%	-1.8	6.1%	2.51µM*	-0.9%	CC1=NN(C(N)=S)C(=O)C1N=Nc1ccc(F)cc1 (centres undefined)
39	-0.4%	0.6	-1.9%	0.2%	-0.2%	CC(=O)Nc1ccc(N=NC2C(=O)N(C(N)=S)N=C2C)cc1 (centres undefined)
40	u	-0.9	-3.8%	7.08µM*	2.5%	CC1=NN(C(N)=S)C(=O)C1N=Nc1ccc([N+](=O)[O-])cc1 (centres undefined)
41	0.2%	0.9	3.9%	0.4%	-0.5%	Nc1cc([N+](=O)[O-])cc2oc(-c3ccccc3)cc12
42	x	-1.7	x	x	x	COc1ccccc1N1CCN(S(=O)(=O)CCNC(=O)CC2CCCC2)CC1
43	u	-2.8	u	-0.3%	-7.7%	Clc1ccc(C2=NN(c3ccccc3)C(c3ccco3)C2)cc1 (centres undefined)
44	58µM*	-3.3	-21.5%	-0.3%	-0.7%	Cc1nn2c(c1-c1ccc(Cl)cc1)N=C(c1ccco1)CC2c1ccccc1 (centres undefined)
45	0.6%	-2.5	-6.5%	-0.1%	3.5%	O=S(=O)(Nc1ccccc1Cl)c1cc(NC(=S)NCCN2CCOCC2)ccc1Cl
46	-3.5%	-3.7	25.9%	-0.2%	-1.2%	CCn1c(=S)[nH]c2ccccc21
47	0.5%	-34.3*	-12.1%	2.8%	0.7%	O=C(Cn1c(=S)[nH]c2ccccc21)c1ccccc1
48	-0.1%	3.2	2.7%	-0.1%	1.5%	COc1ccnc(Oc2ccc(F)cc2)c1C(=O)N/C=N/OCc1ccccc1
49	-0.4%	-32.4*	19.8%	0.0%	-2.6%	C=CCNC(=S)Nc1cccc2[nH]ncc12
50	0.1%	0.0	-4.4%	-0.2%	1.3%	CNC(=S)Nc1cccc2[nH]ncc12
51	2.5%	-70.6*	-8.0%	7.3%	-1.5%	CCOC(=O)N1CCN(C(=S)NC(=O)C2CCCC2)CC1

Screening results: PubChem, National Center for Advancing Translational Sciences (NCATS)
